In general, MRT refers to the average time that molecules of a dose stay in the body.

The nature of series [1]: Plasma pharmacokinetics of free and total MMAE in MIA PaCa2 tumor-bearing mice. It is filed as in vivo. As to conditions: for plasma concentration of free MMAE: 10 min after single intravenous dose, 0.5 mg/kg MMAE equivalent; for AUC 0-∞ / AUMC 0-∞ / Cl / MRT / AUC 0-t: total MMAE in plasma, 0.5 mg/kg i.v.; for AUC 0-t: time 0 to 168 hours. The protocol: (§1) Quantification of MMAE by LC-MS: An Agilent 1260 Infinity liquid chromatography system (G1312B) with an Agilent 6530 Q-TOF mass spectrometer was used to detect the drug MMAE. 5 μL of sample was injected into an Eclipse Plus C18 column (50×2.1 mm, 5 μm) followed by a gradient elution at 0.7 mL/min. […] Electrospray ionization source was used in positive mode. To derive standard curves for MMAE, drug standards were spiked into blank matrix along with internal standard. Samples were then prepared for LC-MS analysis. MMAE was monitored at m/z 740 [M+Na]+, 719 [M+H]+, 371 [M+Na+1-1]^2+ and 360 [M+2H]^2±. Deuterated (D8) MMAE as internal standard was monitored at m/z 748 [M+Na]+, 727 [M+H]+, 375 [M+Na+1-1]^2+ and 364 [M+2H]^2±. The peak area of each drug standard was derived by the peak area of internal standard. The peak area ratios were then plotted as a function of standard concentrations and data points were fitted using linear regression (GraphPad). MMAE concentrations in test samples were quantified using the peak area ratio between MMAE and D8-MMAE and calculated using the standard curves.
Pharmacokinetics and tissue distribution: Thirty-six mice bearing MIA PaCa2 tumors were equally divided into 4 groups. […] All treatment arms were dosed with an equivalent amount of MMAE at 0.5 mg/kg. At 10 min, 24 h, 48 h, 72 h, 96 h and 168 h post-administration, blood samples were collected from 3 mice in each group through tail vein. Plasma was separated immediately using BD microtainer. At 24 h, 72 h and 168 h after administration, 3 mice from each group were euthanized to collect liver, kidney, and tumor tissue samples. Plasma and tissue samples were stored at −80° C. until further analysis.
To determine the amount of free MMAE in plasma samples, 1 μL D8-MMAE (250 ng/mL) internal control was added into 10 μL plasma samples and then mixed with 89 μL acetonitrile. The mixture was thoroughly mixed and centrifuged (12,000 rpm, 20 min, 4° C.). The supernatant was collected for LC-MS quantification. To determine free MMAE in mouse tissues, weighed tissues were homogenized with ice-cold PBS containing protease inhibitors (cOmplete™ ULTRA Tablets, Roche) using a tissue homogenizer (Fisher Scientific) to a final concentration of 600 mg/mL. The homogenized suspension was centrifuged at 12,000 rpm for 20 min at 4° C. As an internal control, 1 μL D8-MMAE (250 ng/mL) was added into 20 μL of the supernatant and then mixed with 79 μL acetonitrile. After the mixture was mixed and centrifuged, the supernatant was collected for LC-MS for quantification.
Briefly, freshly prepared papain (Sigma-Aldrich) was added to plasma and tissue samples at a final concentration of 2 mg/mL, and the mixtures were incubated at 40° C. for 16 hours. The resulting samples were treated as method described above for LC-MS quantification.

The target in a further series is T1, Cathepsin B (Homo sapiens, UniProt P07858).
T1 construct: Cathepsin B extracted from human liver (Sigma-Aldrich); purchased Sigma-Aldrich; host or cells: human liver (tissue extract)
Nature of the series: Drug release of MMAE from albumin-drug conjugates with/without Cathepsin B. It is filed as in vitro ADME. As to conditions: buffer pH 5.5, 37° C.; for conjugated MMAE released upon incubation with Cathepsin B: within 40 min. On the procedure: as §1
Cathepsin B extracted from human liver (Sigma-Aldrich) was activated in a buffer containing 30 mM DTT, 15 mM EDTA at pH 5.5 for 15 min at room temperature. The concentration of Cathepsin B in activation buffer is 0.125 μM. Albumin-drug conjugates in 25 mM sodium acetate buffer (pH 5.5) was mixed with Cathepsin B at the volume ratio of 14:1 (v/v). The target molar ratio of Cathepsin B to linker in albumin-drug conjugates was 1:1000 (mol/mol). The reaction mixture was incubated at 37° C. water bath. 10 μL sample aliquots were taken at predetermined time points and immediately quenched by adding E-64 (trans-Epoxysuccinyl-L-leucylamido(4-guanidino)butane protease inhibitor, Sigma-Aldrich) to a final concentration of 0.25 μM. Acetonitrile was added to a final concentration of 95% (v/v). The supernatant was subsequently analyzed by LC-MS to quantify released free MMAE.

For another series, the system named is PANC1 cells. Nature of the series: MTT assay, PANC1 cells. It is filed as cell-based, human. The source says:
Cell lines and culture: Human pancreatic cancer cell line MIA PaCa2 cells and primary umbilical vein endothelial cells (HUVEC) were purchased from American Type Culture Collection (ATCC). Human pancreatic cancer cell line PANC1 cells were kindly provided by Dr. Zhengrong Cui (College of Pharmacy, The University of Texas at Austin). Mouse mT4-2D pancreatic cancer cell line, which is derived from a Kras^+/LSL-G12DTp53^+/LSL-R172HPdx1-Cre transgenic model of pancreatic cancer, was kindly provided by Dr. Kyaw Aung (Livestrong Cancer Institutes, Dell Medical School, The University of Texas at Austin). MIA PaCa2 cells, PANC1, and mT4-2D cells were maintained in Dulbecco's […] with high glucose (Corning). Cell culture medium was supplemented with 10% fetal bovine serum (Gibco) and 100 U/mL penicillin-streptomycin (Gibco). HUVEC cells were maintained according to protocol provided by ATCC. All cells were maintained at 37° C. in a humidified atmosphere with 5% carbon dioxide.
MTT Assay: Cells were seeded in 96 well plates at a density of 5,000 cells/well. […] After the formazan crystals were completely dissolved, the absorbance at 570 nm was read by a plate reader (Infinite®200 Pro, Tecan). Cell survival rate was calculated as follows: […]
The IC50 (half maximal inhibitory concentration) was calculated using GraphPad Prism 8.
A general note: Tetrazolium assays rely on reduction of a dye to a coloured formazan, in cell work by metabolically active cells.

For another series, the system named is subcutaneous KPC tumors. The series can be described thus: Antitumor efficacy in C57BL/6 mice bearing subcutaneous KPC tumors. In kind it is in vivo. As to conditions: FIG. 18. On the procedure: Further studies were performed on C57BL/6 mice bearing subcutaneous KPC tumors (i.e. mice with intact immune system having pancreatic tumors harboring main mutations: mutant KRAS and loss of p53 tumor suppressor). Pancreatic tumors in immune-competent mice are immune suppressive and thus a more realistic model of disease. After tumor formation, mice were injected at day 0, 4, 8, and 12 with treatment arms with equivalent amount of drug (except for PBS/saline and mouse ALDC1-H, which had about 2× amount of drug). […] (Gem, 100 mg/kg, (intraperitoneally) IP, Day 0, 4, 8, 12, and 16).

As to “ALDC3: albumin-drug conjugate of MMAE drug-linker on TCEP-reduced recombinant serum albumin, drug to albumin ratio of 3”, in series [1], the “plasma concentration of free MMAE” value was 121.74 ± 13.74 ng/mL, the “AUC 0-∞” value is 111.0014 µg·h/mL, the “AUMC 0-∞” value worked out at 728096.2 ng/ml*h^2 and the Cl was 4.5E−06 (mg/kg)/(ng/ml)/h. In series [1], the MRT turned out to be 6.55 h and the “AUC 0-t” value came to 110.3437 µg·h/mL. Besides, in the series with Cathepsin B, the “conjugated MMAE released upon incubation with Cathepsin B” value turned out to be 90.62% and the “released MMAE when incubated without Cathepsin B” value is “not detectable”. Moreover, in the series on PANC1 cells, the “IC50 (in words), higher than free MMAE” value is recorded as “μM toxicity”.

For the substance “ALDC1: albumin-drug conjugate: MMAE via mc-vc-pab linker on Cys34 of recombinant human serum albumin, drug to albumin ratio of 1”, the “AUC of total MMAE in plasma as % of the ALDC3 group” value in series [1] (0.5 mg/kg single dose) is reported as 200%. In series [1], the “plasma concentration of free MMAE” value came out at 49.99 ± 3.88 ng/mL, the “AUC 0-∞” value was found to be 225.6026 µg·h/mL, the “AUMC 0-∞” value came to 1819599.5 ng/ml*h^2 and the Cl is given as 2.2163E−06 (mg/kg)/(ng/ml)/h. Moreover, in series [1], the MRT is 8.06 h and the “AUC 0-t” value came to 224.9654 µg·h/mL. Moreover, in the series with Cathepsin B, the “conjugated MMAE released upon incubation with Cathepsin B” value was 94.73% and the “released MMAE when incubated without Cathepsin B” value is listed as “not detectable”. Also, in the series with subcutaneous KPC tumors, the “tumor growth compared to Abraxane+gemcitabine” value is on record as “significant delay in tumor growth”. In addition, in the series on PANC1 cells, the “IC50 (in words), higher than free MMAE” value is given as “μM toxicity”.

For the origin of these results see patent US20230218773A1 (priority 2020, published 2023).
